Patent US20090023700A1, “NEUROPROTECTIVE TREATMENTS” (University of Louisville Research Foundation, priority 2007, published 2009)

System: T9 contusive spinal cord injury
Assay: Grid-walking sensorimotor test after T9 contusion
Conditions: 100 μM, 28 d L5/6 infusion started 4 h after contusion; p<0.0000025 per ANOVA

## O.O.O.OO.OO.[K+].[OH-].[V].c1cnc2c(c1)ccc1cccnc12 [bpV(phen), potassium bisperoxo(1,10-phenanthroline)oxovanadate (V)]
  grid-walking performance versus PBS group, weekly tests: performed better than the PBS group at all postinjury times
